Screens as filed in PubChem.
An excerpt weighted towards active compounds, which were near 2.3% of everything screened.
CendR NRP1 mod: modulators of CendR peptide binding to human neuropilin-1 | FAM-RPARPAR peptide binding to NRP-1, fluorescence polarization | AID 602438 | O14786 | hit rate 0.85% among 360,000 | inhibition, % at 25 µM;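 active = inhibition or corrected inhibition above about 18%, plus a signal ratio from 0.5 to 1.5, limit read from the data, passing the limit was not always enough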
Yeast UUG start: yeast start codon fidelity modulation; activity score, % at 18.7 µM; actives 0.13% (n = 350,000); S. cerevisiae UUG-firefly luciferase reporter, luminescence/redox ratio; AID 602363;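 active means replicate mean at a twofold rise or more, about +100% in these data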;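 further: firefly luciferase made from a UUG start codon reports start codon fidelity; reporter light over untreated wells divided by growth signal over untreated wells; some hits fall short of that in this replicate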
MC4R ag barr: human MC4R agonism via beta-arrestin; activation, % at 8.9 µM; P32245; hit rate 0.98% among 360,000; U2OS MC4R beta-arrestin complementation, luminescence; percent of melanotan II response, DMSO zero;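 active = activation above a per-plate cutoff, the mean activation of sample wells on that plate plus 3 SD, cut at about 8% in these data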
MC4R antag cAMP: antagonists of human melanocortin 4 receptor (MC4R). P32245. MC4R-expressing cells, MTII-stimulated cAMP, LANCE TR-FRET. inhibition, % at 6.5 µM. hit rate 0.48% among 360,000;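 active = inhibition above its plate's cutoff, the mean of tested wells on that plate plus 3 SD, cut at about 29% in these data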;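 note: 0% = Melanotan II alone and 100% = Melanotan II plus saturating MCL0020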
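Assay system: U2OS cells stably expressing human melanocortin 4 receptor (MC4R) / Dosing: 6.5 µM / Timing: compound 30 min, challenge 1 h, detection 1 h / Measured by: Eu-cAMP/anti-cAMP TR-FRET, emission 671 nm / Replicates: singlicate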
ASAP1 inh: inhibitors of human ASAP1 ArfGAP activity | Q9ULH1 | hit rate 0.19% among 360,000 | AID 624377 | ASAP1-stimulated ARF1 GTP hydrolysis, GDP FP detection | inhibition, % at 16.5 µM; in the data active = inhibition above about 25%;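 note: 0% = vehicle with enzyme and substrate and 100% = no enzyme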
ARFGAP1 inhibitor: inhibitors of rat ARFGAP1; Q62848; Arfgap1-stimulated ARF1 GTP hydrolysis, GDP FP detection; inhibition, % at 16.5 µM; hit rate 0.26% among 360,000;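 active = inhibition above a per-plate limit, mean inhibition of low control wells plus 3 SD, cut at about 25% in these data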;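 note: 0% = DMSO wells with enzyme and 100% = wells lacking Arfgap1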
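material = rat Arfgap1 catalytic domain, aa 1-136 | also added = human ARF1(Δ1-17)-GTP substrate | compound dosing = one concentration, 16.5 µM, DMSO 1.26% | times = GTP hydrolysis reaction 2 h at 25 °C | measured by = FP, GDP Alexa 633 tracer displaced from anti-GDP antibody, 620/688 nm | evaluation = percent inhibition of Arfgap1-stimulated GTP hydrolysis | replication = single well per compound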
ASAP1 GAP conf: confirmation of human ASAP1 inhibitors | inhibition, % at 16.5 µM | hit rate 37% among 620 | shares compounds with ASAP1 inh | AID 624431 | ASAP1-stimulated Arf1 GTPase, GDP fluorescence polarization;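 active = mean inhibition over triplicates exceeds the hit threshold derived for the earlier primary screening run, cut at about 25% in these data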
Numbers without * were called inactive; / = no result.

SMILES	CendR NRP1 mod	Yeast UUG start	MC4R ag barr	MC4R antag cAMP	ASAP1 inh	ARFGAP1 inhibitor	ASAP1 GAP conf
COc1ccc2c(c1OC)C(=O)OC2CC(=O)c1ccc(O)c(O)c1 (stereo unspecified)	-39	-9	-2	2	144*	-10	-1
COc1cc2sc(-c3ccc(S(C)(=O)=O)cc3)c(C#CCO)c2cc1OC	11	36	3	5	30*	15	8
COc1cc(OC)cc(-c2sc3ccc(OC)cc3c2C#CCO)c1	6	41	1	6	12	20	/
NC1=NN(c2c(Cl)cc(Cl)cc2Cl)C(=O)C1	-17	/	0	7	26*	-5	6
CC1=NN(c2ccc(Cl)cc2)C(=O)C1	4	/	-4	12	-5	22	/
CNC[C@@H]1Oc2cc(C#CC(C)(C)O)ccc2S(=O)(=O)N([C@H](C)CO)C[C@H]1C	/	-25	/	/	/	/	/
Cc1ccc(NC(=O)C(OC(=O)c2ccc(O)cc2)c2ccccc2)cc1Cl (stereo unspecified)	-6	-14	2	8	28*	10	-1
Cc1ccc(NC(=O)C(OC(=O)c2ccc(F)cc2)c2ccccc2)cc1Cl (stereo unspecified)	2	-27	2	7	16	1	/
C[C@H]1CN([C@@H](C)CO)C(=O)c2cccc(NC(=O)C3CCCCC3)c2O[C@@H]1CN(C)CC1CC1	/	-10	/	/	/	/	/
COC(=O)c1ccc(C(=O)OCc2nc3cc4ccccc4cc3[nH]2)cc1	-20	-18	-1	6	26*	5	5
O=C(O)CCc1nc2cc3ccccc3cc2[nH]1	7	/	0	1	-4	-8	/
O=C(C[C@H]1C=C[C@@H](NC(=O)CN2CCOCC2)[C@@H](CO)O1)NC1CCC1	/	-4	/	/	/	/	/
C[C@@H]1CCCCO[C@H](CN(C)C(=O)Cc2ccccc2)[C@H](C)CN([C@@H](C)CO)C(=O)c2cc(NC(=O)NC3CCCCC3)ccc2O1	/	4	/	/	/	/	/
Cc1nc2nc[nH]n2c(=O)c1NS(C)(=O)=O	7	-22	1	1	26*	1	4
C[C@@H]1CN([C@H](C)CO)C(=O)Cc2cc(NC(=O)C3CCCCC3)ccc2O[C@@H]1CN(C)CC1CC1	/	0	/	/	/	/	/
C[C@@H]1CN([C@@H](C)CO)C(=O)c2cccc(NS(=O)(=O)c3cccs3)c2O[C@H]1CN(C)S(=O)(=O)c1ccc(Cl)cc1	/	-4	/	/	/	/	/
CC1=C/C(=C(/c2ccc(O)c(C)c2)c2ccccc2S(=O)(=O)O)C=CC1=O	9	25	-5	-2	15	3	/
CC1=C/C(=C(/c2cc(C)c(O)c(Br)c2)c2ccccc2S(=O)(=O)O)C=C(Br)C1=O	40*	-9	-4	1	40*	38*	30*
O=C(O)C[C@H]1C[C@H]2c3cc(NC(=O)CC4CC4)ccc3O[C@H]2[C@H](CO)O1	/	-4	/	/	/	/	/
CSCCNC(=O)C1(C)CCN1C(=O)CCc1ccccc1 (stereo unspecified)	-14	-9	1	20	29*	-5	0

Another view of some results above:
> COc1cc2sc(-c3ccc(S(C)(=O)=O)cc3)c(C#CCO)c2cc1OC
  CendR NRP1 mod: 11
  Yeast UUG start: 36
  MC4R ag barr: 3
  MC4R antag cAMP: 5
  ASAP1 inh: 30*
  ARFGAP1 inhibitor: 15
  ASAP1 GAP conf: 8
> CNC[C@@H]1Oc2cc(C#CC(C)(C)O)ccc2S(=O)(=O)N([C@H](C)CO)C[C@H]1C
  CendR NRP1 mod: /
  Yeast UUG start: -25
  MC4R ag barr: /
  MC4R antag cAMP: /
  ASAP1 inh: /
  ARFGAP1 inhibitor: /
  ASAP1 GAP conf: /
> NC1=NN(c2c(Cl)cc(Cl)cc2Cl)C(=O)C1
  CendR NRP1 mod: -17
  Yeast UUG start: /
  MC4R ag barr: 0
  MC4R antag cAMP: 7
  ASAP1 inh: 26*
  ARFGAP1 inhibitor: -5
  ASAP1 GAP conf: 6
> CC1=C/C(=C(/c2cc(C)c(O)c(Br)c2)c2ccccc2S(=O)(=O)O)C=C(Br)C1=O
  CendR NRP1 mod: 40*
  Yeast UUG start: -9
  MC4R ag barr: -4
  MC4R antag cAMP: 1
  ASAP1 inh: 40*
  ARFGAP1 inhibitor: 38*
  ASAP1 GAP conf: 30*

Next entries
SMILES	CendR NRP1 mod	Yeast UUG start	MC4R ag barr	MC4R antag cAMP	ASAP1 inh	ARFGAP1 inhibitor	ASAP1 GAP conf
CC1(C(=O)NS(=O)(=O)c2ccccc2)CCN1C(=O)CCc1ccccc1 (stereo unspecified)	10	-5	-1	1	-6	-2	/
C[C@@H]1CCCCO[C@H](CN(C)C(=O)c2ccccc2)[C@@H](C)CN([C@@H](C)CO)C(=O)c2cc(NS(=O)(=O)c3ccccc3)ccc2O1	/	-8	/	/	/	/	/
Cc1ccc(S(=O)(=O)Nc2ccc3c(c2)C(=O)N([C@@H](C)CO)C[C@H](C)[C@@H](CN(C)Cc2ccc(C(=O)O)cc2)OCCCC[C@H](C)O3)cc1	/	16	/	/	/	/	/
CCCCOC(=O)Sc1nc2ccccc2o1	-10	-13	0	1	25*	-1	-1
CCOc1cc(/C=C2/NC(=S)NC2=O)ccc1OCc1ccc([N+](=O)[O-])cc1	-13	-9	-2	8	29*	2	13
Cc1c(C)c(C)c(S(=O)(=O)N2CCSCC2)c(C)c1C	2	/	1	5	4	-2	/
Cc1cc(C)c(C)c(S(=O)(=O)N2CCSCC2)c1C	-2	7	2	-3	25*	-2	5
C[C@H]1CN([C@@H](C)CO)C(=O)c2cccc(NS(C)(=O)=O)c2O[C@@H]1CN(C)C(=O)Nc1ccccc1	/	-11	/	/	/	/	/
COc1ccccc1CNC(=O)c1c(N)n(CCCN2CCOCC2)c2nc3ccccc3nc12	0	-15	3	12	17	-4	/
Nc1c(C(=O)NCc2ccc3c(c2)OCO3)c2nc3ccccc3nc2n1CCCN1CCOCC1	-4	/	3	10	34*	17	10
C[C@@H]1CN([C@H](C)CO)C(=O)c2cc(NC(=O)Nc3ccc(F)cc3)ccc2O[C@@H](C)CCCCO[C@H]1CN(C)S(C)(=O)=O	/	18	/	/	/	/	/
Cc1cccc(/N=C/c2sc3ccccc3c2O)n1	-23	-13	0	-12	28*	21	16
CCC(=O)NC(c1cccs1)c1cc([N+](=O)[O-])c2cccnc2c1OC (stereo unspecified)	8	-3	0	-5	43*	23	13
COc1ccc(-c2ccc3c(c2)[C@H]2[C@H](CCN2C(=O)CN2CCOCC2)[C@@H](CO)N3)cc1	/	1	/	/	/	/	/
COc1ccc(OC)c(C2SCCN2S(=O)(=O)c2cccc(C(F)(F)F)c2)c1 (stereo unspecified)	-1	-14	2	10	25*	1	8
COc1cc(OC)c(C2SCCN2S(=O)(=O)c2ccc(F)cc2)cc1OC (stereo unspecified)	-4	-10	3	0	7	-3	/
Nc1ccc(O)c2c(=O)cc(-c3ccccc3Cl)oc12	24	-16	-2	4	28*	0	13
CC(/C=N/NC(=O)c1nnn(-c2nonc2N)c1C(C)C)=C\c1ccccc1	-2	-18	4	-3	29*	14	12
Cc1nc2ccc(S(=O)(=O)Nc3ccc(-c4nc5cccnc5s4)cc3)cc2s1	-18	-16	-1	1	28*	4	19
CCCCNC(=O)NC(C(=O)OC)C12CC3CC(CC(C3)C1)C2 (stereo unspecified)	5	/	-1	10	30*	13	-4
COc1ccc(N(C(=O)CCl)C(C(=O)NC2CCCCC2)c2cccnc2)cc1 (stereo unspecified)	-2	/	8.7*	-4	70*	-8	0
CCOC(=O)c1ccc(Oc2cn[nH]c2-c2ccc(O)cc2O)cc1	5	-10	-1	6	27*	10	20
